Tests used:
Escherichia coli [1] = settings: ATCC 25922
Escherichia coli [2] = settings: ATCC 25922; remark: listed apart in the source

GENTAMICIN showed an MIC (Escherichia coli [1]) of 0.5 µg/mL and an MIC (Escherichia coli [2]) of 0.5 µg/mL.
